Results published in patent US10662476B2 (priority 2011, dated 2020).

System: adolescents undergoing posterior spine fusion
Test: Acute tolerance to morphine analgesia after propofol/remifentanil anesthesia in scoliosis surgery (morphine consumption, NRS pain scores) by TRPA1 genotype
Details: morphine patient-controlled analgesia after propofol/remifentanil anesthesia, NRS at rest

CN1CC[C@]23c4c5ccc(O)c4O[C@H]2[C@@H](O)C=C[C@H]3[C@H]1C5 [morphine]
NRS Pain scores over 48 hours Mean ± S.D. (TRPA1 rs1025928 genotype CC (N=13)): 5.846 ± 3.132
NRS Pain scores over 48 hours Mean ± S.D. (TRPA1 rs1025928 genotype CT (N=23)): 6.391 ± 2.935
NRS Pain scores over 48 hours Mean ± S.D. (TRPA1 rs1025928 genotype TT (N=6)): 6.667 ± 1.966
